Experimental data taken from patent US11447533B2, “Antimicrobial and anticancer peptides and conjugates and compositions, methods, articles and kits relating thereto” (George Mason Research Foundation, Inc., priority 2018, dated 2022).

Assays:
[1] = system: E. coli ML35p outer membrane; assay: NPN assay, outer membrane perturbation; format: cell-based, Escherichia coli; conditions: 25 μM peptide, 25 μM PMB = 100%
Method: Interactions with Bacterial Membranes. Interaction of the peptides with bacterial membranes in different phosphate buffers were evaluated using E. coli ML35p, constructed in our laboratory. At first, competent cells of E. coli ML35 were produced by conventional competent cell preparation method, then transformed with pBR322 plasmid. Transformed colonies were selected after growing on Luria-agar containing 50 μg/mL ampicillin. A single transformed colony was grown in presence of ampicillin first in Luria broth and then in MHBII and stored as 20% glycerol stock at −80° C. […]
NPN Assay. The outer membrane perturbation of bacteria was evaluated by incubating E. coli ML35p with peptides in presence of NPN. […] Then, 90 μL of the bacterial suspension containing 20 μM NPN was added with 10 μL of 250 μM peptide (10×) solution in water and scanned for fluorescence intensity (excitation=350 nm, emission=420 nm). The % Perturbation was calculated by considering PMB to be causing 100% Perturbation and water (without peptide) as 0% Perturbation. […]
When peptides partition from the bulk aqueous environment to the cellular membranes, they may cause small defects in the membrane organization, a signature of adsorption of the peptides into the membranes. Such small defects are called membrane perturbations and can be evaluated by utilizing molecular probes. […]

Pseudomonas aeruginosa = assay: Antimicrobial efficacy against ESKAPE pathogens; format: cell-based
Method: (§1) Antimicrobial Studies. The phosphate buffers used for antimicrobial assays were supplemented with non-nitrogenous energy source, 0.1% (w/v) glucose. To conduct antimicrobial assays, bacterial strains were first suspended in respective buffers. E. coli (ATCC 25922) and B. cereus (ATCC 11778) were grown in MHB II up to OD600 nm˜1 and stored as frozen stock in 20% glycerol at −80° C. Occasionally they were thawed and enumerated by serial dilution and spreading on MHB II agar plates. The concentrations of the frozen stocks of E. coli and B. cereus strains were 1.0-1.1*10^8 CFU/mL with OD600 nm˜0.8. In case of other bacterial strains, they were grown on the days of experiment up to OD600 nm˜1-1.5 and then adjusted to OD600 nm˜0.8. The growth media of the drug-resistant bacterial strains were supplemented with few of the respective antibiotics against which they are resistant. 200 μL of the 0.8 OD600 nm culture were added to 10 mL of the respective buffer to obtain a suspension which was used to incubate with equal volumes of peptide solution in the same buffer.
(§2) Antimicrobial assays in different phosphate buffers and serum were conducted by adapting, with necessary modifications a fast high-throughput method based on Virtual Colony Count technique and later modified by incorporating the use of resazurin. At first serial dilution of a microbial strain in respective buffer was poured in the wells of 96 well polypropylene microplate and was then added with same volume of 2× MHB II supplemented with 80 μg/mL resazurin and incubated at 35° C. in a Gemini EM Microplate Reader (Molecular Devices) overnight with intermittent shaking. As the microbe grows it reduces non-fluorescent resazurin to fluorescent resorufin and the fluorescent intensity of each well were measured (excitation=570 nm, emission=590 nm) each 5 min for 15 hours. The time (t, min) to reach a certain fluorescence (RFU=20000 with respect to the starting fluorescence) was correlated with the initial bacterial concentration (in CFU/mL) in the particular well to obtain a calibration plot of the form: Log([Bacteria],CFU/mL)=b+m*t Equation 4: […]
(§3) To obtain antimicrobial efficacy of the peptides, 50 μL of serially diluted peptide in a buffer was incubated with 50 μL microbial suspension in the same buffer for 3 hours in black polypropylene 96 well plate. After incubation the wells were added with 100 μL of 2× MHB II supplemented with 80 μg/mL resazurin and then incubated with continuous fluorescence reading for overnight time period as described earlier. […]
(§4) ATRA1-R3W2-HYD, NA-CATH and PMB were evaluated for their effectiveness in mammalian serum conditions against pathogenic bacteria of both normal and drug-resistant strains. […]

[2] = system: multi-drug resistant (MDR) Acinetobacter baumannii (ATCC BAA-1795); assay: Antimicrobial efficacy against ESKAPE pathogens; format: cell-based; conditions: mammalian serum
Method: as §1, §2, §3, §4

[3] = system: Klebsiella pneumoniae (ATCC BAA-1705); assay: Antimicrobial efficacy against ESKAPE pathogens; format: cell-based; conditions: mammalian serum
Method: as §1, §2, §3, §4

## CC[C@H](C)[C@H](NC(=O)[C@@H](NC(=O)[C@H](CCCCN)NC(=O)[C@@H]1CCCN1C(=O)[C@H](CCCCN)NC(=O)[C@H](CCCCN)NC(=O)[C@H](Cc1ccccc1)NC(=O)[C@H](Cc1ccccc1)NC(=O)[C@H](CCCCN)NC(=O)[C@H](CCCCN)NC(=O)[C@H](C)NC(=O)[C@H](CCCNC(=N)N)NC(=O)[C@H](CCCCN)NC(=O)[C@H](CCCCN)NC(=O)[C@@H](NC(=O)[C@H](CO)NC(=O)[C@H](CC(N)=O)NC(=O)[C@H](CCCCN)NC(=O)[C@H](CC(C)C)NC(=O)[C@H](CCCCN)NC(=O)[C@H](CCCCN)NC(=O)[C@H](Cc1ccccc1)NC(=O)[C@H](Cc1ccccc1)NC(=O)[C@H](CCCCN)NC(=O)[C@H](CCCCN)NC(=O)[C@H](Cc1ccccc1)NC(=O)[C@H](CCCNC(=N)N)NC(=O)[C@@H](N)CCCCN)C(C)C)C(C)C)C(=O)NCC(=O)N[C@H](C(=O)N[C@H](C(=O)N[C@@H](Cc1ccccc1)C(=O)N1CCC[C@H]1C(=O)N[C@@H](Cc1ccccc1)C(=O)O)[C@@H](C)O)C(C)C [NA-CATH, reference compound]
[1]; 10 mM phosphate buffer
  membrane perturbation with respect to PMB: higher degree of membrane perturbations than PMB
[1]; PBS
  membrane perturbation with respect to PMB: perturbed outer membrane greater than PMB
Pseudomonas aeruginosa; DPBS
  antimicrobial effectiveness, in words: good bactericidal properties
Pseudomonas aeruginosa; mammalian serum
  antimicrobial effectiveness, in words: did not demonstrate antimicrobial effectiveness
[2]
  antimicrobial effectiveness, in words: effective in mammalian serum
[3]
  antimicrobial effectiveness, in words: effective in mammalian serum
